For the test, the target named is human Kv1.3 ion channel (Homo sapiens, UniProt P22001). The test is described as follows: Inhibition of Kv1.3 currents, planar patch clamp in human Jurkat cells. The settings on record: read-out: EC50 Kv1.3, Jurkat cells endogenously expressing hKv1.3, averaged dose response data from 3 or more cells.

Chains of the proteins cited; added tags and fusions are not shown.
UniProt P22001, whole entry: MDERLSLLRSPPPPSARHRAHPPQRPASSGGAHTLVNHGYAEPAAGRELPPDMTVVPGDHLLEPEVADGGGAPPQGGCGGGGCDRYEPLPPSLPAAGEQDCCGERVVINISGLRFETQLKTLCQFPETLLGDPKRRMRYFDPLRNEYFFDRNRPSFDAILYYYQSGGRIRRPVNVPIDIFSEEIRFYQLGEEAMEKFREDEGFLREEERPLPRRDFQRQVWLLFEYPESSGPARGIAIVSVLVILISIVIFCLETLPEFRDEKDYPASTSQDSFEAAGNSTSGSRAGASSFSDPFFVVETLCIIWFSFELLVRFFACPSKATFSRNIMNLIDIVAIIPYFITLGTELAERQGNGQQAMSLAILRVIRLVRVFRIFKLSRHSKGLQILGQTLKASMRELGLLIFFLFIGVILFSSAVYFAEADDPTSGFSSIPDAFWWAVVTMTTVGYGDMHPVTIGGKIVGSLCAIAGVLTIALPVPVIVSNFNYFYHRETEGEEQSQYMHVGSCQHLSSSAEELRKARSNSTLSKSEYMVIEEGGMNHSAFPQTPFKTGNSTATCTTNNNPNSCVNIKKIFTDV

Each structure is given as a SMILES string.

Consider `CSCc1cc(=O)c2c(OCCCCOc3ccccc3)c3ccoc3cc2o1`, for which the EC50 came to 260 nM.

By EC50 is commonly meant the midpoint of the concentration-response curve.
